Columns and labels:
[1] = test system: Rat kidneys; assay: Machine perfusion of rat kidneys for 24 hours, transplantation, post-transplant serum creatinine; format: in vivo; details: component(s) added to Belzer solution; kidneys preserved under machine perfusion for 24 hours, then transplanted; serum creatinine measured hourly for 6 hours; control BELZ solution; FIG. 2
Procedure: Rat kidneys were recovered as above. Seven different solutions were prepared for comparison according to Table 2. […] The kidneys were preserved under machine perfusion for 24 hours with the respective solutions, and transplanted into recipient animals. Post-transplant serum creatinine (S. CREAT) was measured hourly for 6 hours.

[2] = test system: Sprague-Dawley rat kidneys; assay: Cold storage of rat kidneys for 24 hours, transplantation, post-transplant serum creatinine; format: in vivo; details: component(s) added to Viaspan; kidneys preserved under static conditions for 24 hours at 4° C, then transplanted; serum creatinine measured hourly for 6 hours; control VIASP solution; FIG. 1
Procedure: Sprague-Dawley rat kidneys were recovered in the normal fashion and were exsanguinated and cooled to 4° C. Experimental components were added to the solution to test for improvements in post-transplant function (indicated by serum creatinine levels). Seven different solutions were prepared for comparison according to Table 1. […] The kidneys were preserved under static conditions for 24 hours with the respective solutions, and transplanted into recipient animals. Post-transplant serum creatinine (S. CREAT) was measured hourly for 6 hours.

## α-ketoglutarate
[1]
  improvement in post-transplant function (serum creatinine) compared to the control: Minimal, but statistically insignificant improvements
[2]
  improvement in post-transplant function (indicated by serum creatinine levels) compared to the control: Minimal, but statistically insignificant improvements

Source: patent US20100311035A1, “Preservation solution for organs and biological tissues” (priority 2005, published 2010)
